Values quoted from earlier work in patent publication US11786507B2, “Methods of treating HIV-associated neurological disorders (HAND)” (priority 2020, dated 2023).

Amino acid sequences for entries named in this document (tags omitted).
UniProt Q16539, whole entry: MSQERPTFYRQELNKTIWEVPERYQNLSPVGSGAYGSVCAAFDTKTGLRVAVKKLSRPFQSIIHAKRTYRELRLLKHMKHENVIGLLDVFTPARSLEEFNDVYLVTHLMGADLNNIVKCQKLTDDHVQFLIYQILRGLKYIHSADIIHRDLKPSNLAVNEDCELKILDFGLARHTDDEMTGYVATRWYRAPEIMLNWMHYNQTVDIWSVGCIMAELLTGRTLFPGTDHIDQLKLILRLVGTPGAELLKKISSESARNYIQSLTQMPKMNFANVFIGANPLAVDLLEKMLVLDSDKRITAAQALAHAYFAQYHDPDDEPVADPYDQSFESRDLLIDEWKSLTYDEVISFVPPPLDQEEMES

Molecular target: p38 MAPK (Homo sapiens, UniProt Q16539)
Conditions: cited from earlier work

SMILES: Oc1ccc(-c2nc(-c3ccc(F)cc3)c(-c3ccncc3)[nH]2)cc1 [SB202190]
- Specificity / off-target effects: off-target effects
